In publication PMC6541264, “Molecular mechanisms involved in drug-induced liver injury caused by urate-lowering Chinese herbs: A network pharmacology study and biology experiments” (PLoS ONE, 2019):

Test system: L-02 cells
Experiment: Biochemical indicators of hepatotoxicity (ALT, AST, LDH, ALP activity) of L-02 cells, without and with p38 inhibitor SB203580
Type: cell-based, human
Details: Table 5, L-02 supernatant, 24 h, 60μmol/L
Description: The normal hepatic cell (L02) cell lines were obtained from the National Infrastructure of Cell Line Resources (Chinese Academy of Medical Sciences, Beijing, China), and maintained in Dulbecco’s modified Eagle’s medium (DMEM, 10-013-CVR) supplemented with 10% fetal bovine serum (FBS, Hyclone), 1% penicillin and streptomycin (PS, 100 IU/ml penicillin, 100 μg/ml streptomycin, Mediatech, 30-002-CI). All cells were incubated in a humidified atmosphere at 37°C with 5% CO2.
To determine how potential liver injury-compounds affected biochemical indicators of L-02 cells, we investigated the activities of AST, ALT, LDH and ALP in cell migration capacity under the different representative compounds conditions (representative compounds group), the inhibitor conditions (inhibitor group), and the negative control. For these experiments, three replicates were made for each concentration of the different representative compounds with liver injury, and each group was established three holes and cultured in 6 times repeatedly. L02 cells were settled into 24-well plate at concentrations of 1.6 × 10^3 per well for 24h and then treated with the concentrations that had been determined by MTT method of the representative candidate liver injury compounds for another 24 h. […]

COc1ccc2cc1Oc1ccc(cc1)C[C@H]1c3cc(c(OC)cc3CCN1C)Oc1c(OC)c(OC)cc3c1[C@H](C2)N(C)CC3 [Tetrandrine] showed an ALP of 16.39±0.81 King's unit /100ml.
